Antibody variant affinities, Ab-14 light chain, assay 1

Reference: Engelhart et al. 2022, doi:10.1038/s41597-022-01779-4. File: FLAb, binding data.

Target: peptide PDVDLGDISGINAS, taken from heptad repeat 2 (HR2) of SARS-CoV-2 spike.

Each scFv is VH, three GGGGS repeats, VL, as in the parent Ab-14, and differs from it in the CDRs of the light chain only.
VH: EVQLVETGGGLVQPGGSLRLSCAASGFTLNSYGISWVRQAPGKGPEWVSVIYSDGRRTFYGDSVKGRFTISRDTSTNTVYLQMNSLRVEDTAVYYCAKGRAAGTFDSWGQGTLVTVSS
VL: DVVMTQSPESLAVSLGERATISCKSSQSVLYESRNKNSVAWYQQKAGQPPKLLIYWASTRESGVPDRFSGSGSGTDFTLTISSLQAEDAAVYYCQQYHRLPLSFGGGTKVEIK

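Variants in AAYL50 differ from the parent at up to three CDR positions; double and triple changes were sampled at random. Affinity was read by AlphaSeq, a pooled yeast mating assay with surface-displayed partners. Mating (16 h, 30 °C) was followed by selection of diploids and sequencing of their barcodes. The ratio of observed to expected reads was calibrated, replicate by replicate, on BCL2-family standards whose Kd was known from biolayer interferometry. The assay was run in three technical replicates.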

Substitutions are numbered in sequence along the VL above, starting at 1 (not Kabat).
Affinities are written as log10 Kd with Kd in nM; a lower number is a better binder.
A mean of the replicates is given; it leaves out those without a signal.
"nd" marks a missing value. The strain was present, yet no cells mated with the target were sequenced in that replicate, which points to weak or no binding.
Empty control strains, which show no peptide, gave a signal in 18% of pairings with library AAYL50; the median was 4.19 and 95% of these signals were weaker than 2.99. No background was subtracted. The control count says in how many pairings with the empty strains this scFv gave a signal, with their mean in brackets.
For reference, the parent read 0.65 as the reference entry and 1.68 as a member of this library.

{"changes": "E32N A57R T59H", "log10 Kd (nM) by replicate": "6.32 / 5.12 / nd", "mean, log10 nM": "5.72", "control signals": "1 of 9 (4.24)"}
{"changes": "T59K E61D P101C", "log10 Kd (nM) by replicate": "1.55 / 1.97 / 1.78", "mean, log10 nM": "1.77", "control signals": "5 of 9 (4.35)"}
{"changes": "V29T S38W E61W", "log10 Kd (nM) by replicate": "nd / 3.87 / nd", "mean, log10 nM": "3.87", "control signals": "0 of 9"}
{"changes": "L30Y E32Q Y97C", "log10 Kd (nM) by replicate": "nd / nd / nd", "mean, log10 nM": "nd", "control signals": "1 of 9 (3.85)"}
{"changes": "E32T R34N", "log10 Kd (nM) by replicate": "0.06 / 0.23 / 0.23", "mean, log10 nM": "0.17", "control signals": "0 of 9"}
{"changes": "L30C E61T", "log10 Kd (nM) by replicate": "2.94 / nd / 1.63", "mean, log10 nM": "2.29", "control signals": "0 of 9"}
{"changes": "S28T E32S S38D", "log10 Kd (nM) by replicate": "0.24 / 0.51 / 0.36", "mean, log10 nM": "0.37", "control signals": "5 of 9 (5.25)"}
{"changes": "T59P Q96A Y97C", "log10 Kd (nM) by replicate": "nd / 3.90 / nd", "mean, log10 nM": "3.90", "control signals": "3 of 9 (4.03)"}
{"changes": "S33C N35A L102R", "log10 Kd (nM) by replicate": "nd / 5.45 / nd", "mean, log10 nM": "5.45", "control signals": "6 of 9 (4.65)"}
{"changes": "L30N A57G R99C", "log10 Kd (nM) by replicate": "1.04 / 0.99 / 0.82", "mean, log10 nM": "0.95", "control signals": "0 of 9"}
{"changes": "K24G S38M S62E", "log10 Kd (nM) by replicate": "nd / 2.87 / 2.57", "mean, log10 nM": "2.72", "control signals": "1 of 9 (4.61)"}
{"changes": "Q27V S58E T59Y", "log10 Kd (nM) by replicate": "1.21 / 1.41 / 1.31", "mean, log10 nM": "1.31", "control signals": "4 of 9 (3.92)"}
{"changes": "Q27Y E32M Q96M", "log10 Kd (nM) by replicate": "nd / nd / nd", "mean, log10 nM": "nd", "control signals": "1 of 9 (3.47)"}
{"changes": "S25I Q27P R34F", "log10 Kd (nM) by replicate": "4.56 / 3.97 / 5.22", "mean, log10 nM": "4.58", "control signals": "4 of 9 (4.44)"}
{"changes": "K24F T59R Q96P", "log10 Kd (nM) by replicate": "nd / nd / nd", "mean, log10 nM": "nd", "control signals": "0 of 9"}
{"changes": "L30E R60F Q95Y", "log10 Kd (nM) by replicate": "nd / nd / nd", "mean, log10 nM": "nd", "control signals": "0 of 9"}
{"changes": "A40V A57S Q96R", "log10 Kd (nM) by replicate": "nd / nd / nd", "mean, log10 nM": "nd", "control signals": "0 of 9"}
{"changes": "K24V N37D L102I", "log10 Kd (nM) by replicate": "5.22 / 2.31 / 2.80", "mean, log10 nM": "3.44", "control signals": "1 of 9 (2.70)"}
{"changes": "S26R H98V", "log10 Kd (nM) by replicate": "nd / nd / nd", "mean, log10 nM": "nd", "control signals": "0 of 9"}
{"changes": "Q95A R99W", "log10 Kd (nM) by replicate": "nd / nd / nd", "mean, log10 nM": "nd", "control signals": "2 of 9 (3.37)"}
{"changes": "S26H N37R", "log10 Kd (nM) by replicate": "nd / 3.69 / 2.26", "mean, log10 nM": "2.98", "control signals": "0 of 9"}
{"changes": "W56D E61R Q96T", "log10 Kd (nM) by replicate": "-0.13 / 0.22 / -0.03", "mean, log10 nM": "0.02", "control signals": "9 of 9 (4.77)"}

Extract of 2 entries:

{"changes": "S26H N37R", "log10 Kd (nM) by replicate": "nd / 3.69 / 2.26", "mean, log10 nM": "2.98", "control signals": "0 of 9"}
{"changes": "E32T R34N", "log10 Kd (nM) by replicate": "0.06 / 0.23 / 0.23", "mean, log10 nM": "0.17", "control signals": "0 of 9"}